Experimental data as given in patent US7193044.

How the values were obtained:
[1] = system: Mutant BAD S155A, full-length, in vitro translated, 35S-methionine labelled

PKA (cAMP-dependent protein kinase), catalytic subunit from bovine heart
PKA catalyzed 32P-ATP incorporation, reduction compared to the wild-type BAD substrate (GST-BAD S155A): A single S155A mutation reduced PKA catalyzed 32P-ATP incorporation by more than 90%, compared to the wild-type mammalian BAD substrate | gel-mobility shift after incubation with PKA and ATP [1]: but not mutant S155A BAD
